Assay results taken from PubChem BioAssay AID2098 (Broad Institute, 2009).
The list shows a part of the results, in another mix than the full data. Activity calls are given as the source filed them.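 Rule for the calls: active = more than half of replicate wells show activity change below -50%, luminescence cut by over half; inconclusive = some wells, but at most half, below -50%; inactive = no replicate well below -50%.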

Assay: HSF1 inhibitors in luciferase reporter cells, primary screen, cell-based, NIH3T3, luminescence (AID 2098);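 note: luciferase reports HSF-1 transcriptional activity via heat shock element; 0% = median of DMSO wells and -100% = zero luminescence signal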
Details: NIH3T3-HGL HSE-luciferase, MG132-induced, luminescence 8 h; active compounds read low; screened at 7.5 µM (by protocol)
With `CCOC(=O)N1CCC(Nc2ccc(OC)cc2)CC1` the activity change, negative = inhibition was inactive: -3.25%. With `O=C(OC1CN2CCC1CC2)C1c2ccccc2Oc2ccccc21` (centres undefined) the activity change, negative = inhibition was inactive: 10.7%. For `N#CC1(Nc2ccccc2)CCN(Cc2ccccc2)CC1`, the activity change, negative = inhibition was inactive: -10.2%. For `O=C(NCC1(N2CCOCC2)CCCCC1)c1cc2ccccc2o1`, the activity change, negative = inhibition was inactive: 3.41%. In the case of `Cc1cc(C)cc(N(C(=O)c2ccccc2)C2CCN(C(=O)OC(C)(C)C)CC2)c1`, the activity change, negative = inhibition is reported as inactive: 0.91%. In the case of `O=C(NCC1(N2CCCCC2)CCCCC1)c1ccc(Cl)nc1`, the activity change, negative = inhibition is reported as inactive: -4.6%. With `CSc1ccccc1C(=O)NCC1(N2CCCCC2)CCCCC1` the activity change, negative = inhibition was inactive: -6.51%. With `O=C(NCC1(N2CCCCC2)CCCCC1)c1cccs1` the activity change, negative = inhibition was inactive: -1.47%. In the case of `O=C(NCC1(N2CCCCC2)CCCCC1)c1ccc(=O)[nH]c1`, the activity change, negative = inhibition is reported as inactive: -6.85%. In the case of `COc1ccc(C(=O)NCC2(N3CCCCC3)CCCCC2)c(OC)c1OC`, the activity change, negative = inhibition is reported as inactive: -10.3%. In the case of `CC(C)(C)OC(=O)N1CCC(N(C(=O)c2ccccc2)c2ccc(F)cc2)CC1`, the activity change, negative = inhibition is reported as inactive: -4.33%. In the case of `COc1ccc(C(=O)NCC2(N3CCCCC3)CCCCC2)cc1`, the activity change, negative = inhibition is reported as inactive: -6.51%. In the case of `Cc1ccc(OCC(C)C)c(CN(CCCl)CCCl)c1`, the activity change, negative = inhibition is reported as inactive: 3.82%. With `COc1cc(C(=O)NCC2(N(C)C)CCCCC2)ccc1OC(F)F` the activity change, negative = inhibition was inactive: -9.84%. With `CCOC(=O)N1CCC(Nc2cccc(C)c2)CC1` the activity change, negative = inhibition was inactive: 9.45%. In the case of `COc1ccc(NC2CCN(CCc3ccccc3)CC2)c(OC)c1`, the activity change, negative = inhibition is reported as inactive: -3.59%. With `CCOC(=O)N1CCC(Nc2ccc(F)cc2)CC1` the activity change, negative = inhibition was inactive: 10.7%. For `O=C(NCC1(N2CCCCC2)CCCCC1)c1ccc(F)cc1`, the activity change, negative = inhibition was inactive: -3.4%. For `CCOc1ccc(C)cc1CN(CCCl)CCCl`, the activity change, negative = inhibition was inactive: 4.33%. With `CN1CCN(CCOC(=O)C(O)(c2ccccc2)c2ccccc2)CC1` the activity change, negative = inhibition was inactive: 3.36%. For `COc1ccc(NC2CCN(C(=O)OC(C)(C)C)CC2)cc1`, the activity change, negative = inhibition was inactive: 1.12%. For `COc1cc(C(=O)NCC2(N3CCCCC3)CCCCC2)ccc1OC(F)F`, the activity change, negative = inhibition was inactive: -2.57%. In the case of `O=C(NCC1(N2CCOCC2)CCCCC1)c1cc(=O)[nH]c2ccccc12`, the activity change, negative = inhibition is reported as inactive: -3.38%. With `O=C(NCC1(N2CCCCC2)CCCCC1)c1cccc(C(F)(F)F)c1` the activity change, negative = inhibition was inactive: -1.87%. With `O=C(NCC1(N2CCCCC2)CCCCC1)c1cccc([N+](=O)[O-])c1` the activity change, negative = inhibition was inactive: 2.99%. In the case of `N#CC1(Nc2ccccc2)CCN(CCc2ccccc2)CC1`, the activity change, negative = inhibition is reported as inactive: -1.64%. In the case of `CCN1CCC(Nc2ccc(Cl)cc2)CC1`, the activity change, negative = inhibition is reported as inactive: -4.59%. For `O=C(NCC1(N2CCCCC2)CCCCC1)c1ccc(OC(F)F)cc1`, the activity change, negative = inhibition was inactive: -3.6%. For `CCCOc1ccc(C(=O)NCC2(N(C)C)CCCCC2)cc1OC`, the activity change, negative = inhibition was inactive: -5.55%. In the case of `CN1CCC(Nc2cccc(F)c2)CC1`, the activity change, negative = inhibition is reported as inactive: -2.42%. For `COc1cc(OC)c(C(=O)NCC2(N(C)C)CCCCC2)cc1OC`, the activity change, negative = inhibition was inactive: 4.67%. In the case of `CN(C)c1cccc(C(=O)NCC2(N3CCCCC3)CCCCC2)c1`, the activity change, negative = inhibition is reported as inactive: -11.5%. For `COc1ccc(CN(CCCl)CCCl)cc1Cl`, the activity change, negative = inhibition was inactive: 4.48%. For `CC(C)c1ccc(NC2CCN(C(=O)OC(C)(C)C)CC2)cc1`, the activity change, negative = inhibition was inactive: -1.65%. For `O=C(OC1CN2CCC1CC2)C1c2ccccc2C=Cc2ccccc21` (centres undefined), the activity change, negative = inhibition was inactive: -6.21%. In the case of `CCc1cc(C(=O)NCC2(N3CCCCC3)CCCCC2)sc1C`, the activity change, negative = inhibition is reported as inactive: -2.66%. For `N/C(=N\O)c1c(N)no[n+]1[O-]`, the activity change, negative = inhibition was inactive: -10.1%. With `CCOC(=O)N1CCC(Nc2ccc(C)cc2)CC1` the activity change, negative = inhibition was inactive: -1.32%. With `COc1ccc(C(=O)NCC2(N3CCOCC3)CCCCC2)cc1OC` the activity change, negative = inhibition was inactive: -6.34%. In the case of `CCCN1CCC(Nc2cc(OC)cc(OC)c2)CC1`, the activity change, negative = inhibition is reported as inactive: -7.12%. In the case of `c1ccc(CN2CCC(Nc3ccccc3)CC2)cc1`, the activity change, negative = inhibition is reported as inactive: -5.29%. With `CN(C)C1(CNC(=O)c2cccc(C#N)c2)CCCCC1` the activity change, negative = inhibition was inactive: -3.02%. In the case of `CC(C)(C)OC(=O)N1CCC(N(C(=O)c2ccccc2)c2ccc(Cl)cc2)CC1`, the activity change, negative = inhibition is reported as inactive: -2.14%. In the case of `N#Cc1ccc(C(=O)NCC2(N3CCCCC3)CCCCC2)cc1`, the activity change, negative = inhibition is reported as inactive: -5.55%. With `CN(C)c1ccc(C(=O)NCC2(N3CCCCC3)CCCCC2)cc1` the activity change, negative = inhibition was inactive: -3.38%. With `CCN1CCC(Nc2cccc(F)c2)CC1` the activity change, negative = inhibition was inactive: -1.72%. In the case of `Fc1ccccc1NC1CCN(Cc2ccccc2)CC1`, the activity change, negative = inhibition is reported as inactive: -7.33%. For `Cc1ccc(C(=O)NCC2(N3CCCCC3)CCCCC2)o1`, the activity change, negative = inhibition was inactive: -6.65%. For `COc1cc(OC)cc(C(=O)NCC2(N3CCCCC3)CCCCC2)c1`, the activity change, negative = inhibition was inactive: 4.39%. For `CCCOc1ccc(C)cc1CN(CCCl)CCCl`, the activity change, negative = inhibition was inactive: 3.38%. With `CN1CCC(Nc2ccc(Cl)cc2)CC1` the activity change, negative = inhibition was inactive: -3.57%. In the case of `CCC(CO)(C(=O)OC1CN2CCC1CC2)c1ccccc1` (centres undefined), the activity change, negative = inhibition is reported as inactive: -2.89%. In the case of `COc1cc(OC)cc(C(=O)NCC2(N3CCOCC3)CCCCC2)c1`, the activity change, negative = inhibition is reported as inactive: -3.22%. In the case of `COc1cccc(C(=O)N(c2cc(C)cc(C)c2)C2CCN(C(=O)OC(C)(C)C)CC2)c1`, the activity change, negative = inhibition is reported as inactive: -0.224%. For `CCCOc1ccc(C(=O)NCC2(N(C)C)CCCCC2)cc1`, the activity change, negative = inhibition was inactive: 7.68%. With `O=C(O)C1(Nc2ccccc2)CCN(Cc2ccccc2)CC1` the activity change, negative = inhibition was inactive: -8.58%. With `CC(C)(C)OC(=O)N1CCC(Nc2ccccc2)CC1` the activity change, negative = inhibition was inactive: -3.65%. With `CN1CCC(Nc2ccc(F)c(Cl)c2)CC1` the activity change, negative = inhibition was inactive: 0.707%. In the case of `CCOc1ncccc1C(=O)NCC1(N2CCOCC2)CCCCC1`, the activity change, negative = inhibition is reported as inactive: -1.93%.
